{"source": "ChEMBL document CHEMBL1128666", "about": "“Synthesis and antimicrobial and toxicological studies of amino acid and peptide derivatives of kanamycin A and netilmicin” (J Med Chem, 1995)", "key": {"Enterobacter cloacae": {"tested_on": "Enterobacter cloacae", "assay": "Minimum inhibitory concentration (MIC) was measured against Enterobacter cloacae.", "assay_type": "functional", "procedure,_shortened": "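Strains were clinical isolates from the microbiology laboratories of Cliniques Universitaires St-Luc and Hôpital Brugmann, Brussels, and were characterized there. Compounds were tested as sulfate salts, which were stable in distilled water at pH 7.0 for at least 24 h. MIC was the highest dilution giving no visible growth, expressed in mg/L of free base.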"}, "Acinetobacter lwoffii": {"tested_on": "Acinetobacter lwoffii", "settings": "acinetobacter iwoffi; ATCC 17986"}, "Staphylococcus aureus": {"tested_on": "Staphylococcus aureus", "settings": "ATCC 25923"}}, "data": [{"sequence": "GENTAMICIN", "values": [{"measurement": "MIC", "setting": "Enterobacter cloacae", "value": 2, "unit": "µg/mL"}, {"measurement": "MIC", "setting": "Acinetobacter lwoffii", "value": 2, "unit": "µg/mL"}, {"measurement": "MIC", "setting": "Staphylococcus aureus", "value": 0.5, "unit": "µg/mL"}]}]}
